Test: Miscibility of film-forming agent with physiological saline solution (uniformity of solution)
Assay type: physicochemical
Conditions: film-forming agent mixed with same weight of physiological saline solution 9 g/L, room temperature, shaken 20 seconds, macroscopically checked
In the case of “dimethacrylate of ethylene glycol nona-mer [Example 9G]”, the “Solubility (Uniformity of Reference Solutions)” value (“Solubility” below) is reported as “no dissolved”.
In the case of “monomethacrylate of ethylene glycol tetra- or penta-mer [HO-4ED]”, the “Solubility” value is reported as “dissolved”.
In the case of “methacrylate of methoxypolyethylene glycol 200 [PE-200-OMe]”, the “Solubility” value is reported as “not dissolved”.
In the case of “dimethacrylate of ethylene glycol tetradeca-mer [Example 14G]”, the “Solubility” value is reported as “dissolved”.

From patent US6750268B2, “Bonding composition” (Kuraray Co., Ltd., priority 1999, dated 2004)
